From US20040192707A1
This is a selection: effects in other tests are not listed, and their absence says nothing.

Assay: Evaluation of Bioavailability in Male CD-1 Mice
Conditions: plasma, LC/MS
Method: Evaluation of Bioavailability in Male CD-1 Mice
Male CD-1 mice were dosed with the compound by iv (tail injection; vehicule: 45% β-cyclodextrin in saline) and by po (gavage; vehicule: 0.5% carboxy Methyl Cellulose+5% tween 80+saline).
Parent compound was administered at a dose of 20 mg/kg (i.v.) and 130 mg/kg (p.o.) whereas compound #1 and compound #2 were administered at 25 mg/kg (i.v. and p.o.)
The blood was collected in EDTA tube. Time points collected for iv are: 2, 5, 15, 30, 45, 60, 90, 120, 180 and 240 minutes post injection and for po are: 5, 15, 30, 45, 60, 90, 120, 180 and 240 minutes post injection. Three mice per time point. The blood was centrifuged to obtain plasma samples.
Plasma samples were extracted by protein precipitation with acetonitrile, evaporated and reconstituted with 50% MeOH/H2O. 30 μL was injected for the parent compound and for compound #1 and compound #2 10 μL was injected.
The standard curve range was between 0.1 to 30 μg/ml for the parent compound, 0.5 to 5 μg/ml for compound #1 and 0.01 to 2 μg/ml for compound #2. Adequate QC were performed.
The analysis was performed with a HPLC Agilent 1100 equipped with a MSD mass spectrometry detector with API-ESI source (LC/MS) supported by ChemStation software.
Analytical condition: The column was a Luna C18 (2) 5 μm 2×50 mm distributed by Phenomenex. A linear gradient of acetonitrile in 10 mM ammonium formate pH 6 was done at a flow rate of 0.25 ml/min.

| SMILES | Bioavailability (25 mg/kg (i.v. and p.o.)) [%] | Bioavailability (20 mg/kg (i.v.) and 130 mg/kg (p.o.)) [%] |
| --- | --- | --- |
| CC1CCC(C(=O)N(c2cc(-c3ccccc3)sc2C(=O)OCOC(=O)C(C)(C)C)C2CCN(C)CC2)CC1 (stereo not drawn) | 8.7 |  |
| CC1CCC(C(=O)N(c2cc(-c3ccccc3)sc2C(=O)O)C2CCN(C)CC2)CC1 (stereo not drawn) |  | 0.4 |
| CC1CCC(C(=O)N(c2cc(-c3ccccc3)sc2C(=O)OCOC(=O)OC(C)C)C2CCN(C)CC2)CC1.Cl (stereo not drawn) | 3.8 |  |
